Data published in US10787424B2, “Oxopiperazine helix mimetics for control of Hypoxia-Inducible gene expression” (NEW YORK UNIVERSITY, priority 2014, dated 2020).

Amino acid sequences for entries named in this document (tags omitted). Residues count along the entry.
UniProt Q09472, 323-423 limits assumed: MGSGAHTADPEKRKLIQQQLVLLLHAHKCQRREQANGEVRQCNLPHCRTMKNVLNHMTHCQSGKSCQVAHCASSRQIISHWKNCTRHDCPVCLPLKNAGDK
UniProt Q00987, whole entry: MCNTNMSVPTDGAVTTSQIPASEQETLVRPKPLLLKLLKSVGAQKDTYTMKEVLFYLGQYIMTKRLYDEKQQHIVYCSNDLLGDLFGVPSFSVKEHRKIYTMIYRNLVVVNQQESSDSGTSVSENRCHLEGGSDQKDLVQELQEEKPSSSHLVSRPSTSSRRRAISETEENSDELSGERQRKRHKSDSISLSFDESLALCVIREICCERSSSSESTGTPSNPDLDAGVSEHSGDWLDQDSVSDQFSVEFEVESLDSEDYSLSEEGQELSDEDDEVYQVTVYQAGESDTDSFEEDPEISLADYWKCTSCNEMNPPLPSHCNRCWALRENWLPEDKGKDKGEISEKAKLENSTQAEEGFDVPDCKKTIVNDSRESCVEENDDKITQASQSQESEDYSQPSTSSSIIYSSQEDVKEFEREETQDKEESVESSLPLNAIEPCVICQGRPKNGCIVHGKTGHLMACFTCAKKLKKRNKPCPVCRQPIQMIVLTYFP

Legend:
[1] = target: human p300 CH1 domain (p300-CH1) (Homo sapiens, UniProt Q09472); assay: Tryptophan fluorescence binding assay for p300-CH1; details: read-out: p300 Kd; cross-specificity, p300-CH1 (Table 9)
Source text: The DNA sequence of the human p300 CH1 domain (amino acid residues 323-423) was subcloned into a pUC57 plasmid by Genscript, Inc. After transformation of JM109 bacteria (Promega) with the plasmid, it was amplified and purified. Then the gene of interest was subcloned between BamHI and EcoRI restriction sites of pGEX-4T-2 expression vector (Amersham).
The pGEX-4T-2-p300 fusion vector was transformed into BL21(DE3) competent E.coli (Novagen) in M9 minimal media with ^15NH4Cl as the primary nitrogen source. Protein production was induced with 1 mM IPTG at OD600 of 1 for 16 hours at 15° C. Production of the desired p300-CH1-GST fusion product was verified by SDS-PAGE. […]
Relative affinities of OHMs for p300-CH1 were determined using a tryptophan fluorescence binding assay. Spectra were recorded on a QuantaMaster 40 spectrofluorometer (Photon Technology International) in a 10 mm quartz fluorometer cell at 25° C. with 4 nm excitation and 4 nm emission slit widths from 200 to 400 nm at intervals of 1 nm/s. Samples were excited at 295 nm and fluorescence emission was measured from 200-400 nm and recorded at 335 nm. […] Background absorbance and sample dilution effects were corrected by titrating DMSO into p300-CH1 in an analogous manner. […]

[2] = target: His6-tagged Mdm2 (Homo sapiens, UniProt Q00987); assay: Competitive fluorescence polarization assay with Flu-p53 as a probe; type: binding; details: read-out: Mdm2 Kd; cross-specificity, Mdm2, Flu-p53 probe (Table 9)
Source text: FIGS. 11A-B are graphs of oxopiperazine analog binding to His6-tagged Mdm2 determined by a fluorescence-polarization assay (FIG. 11A) and to p300-CH1 determined by tryptophan fluorescence spectroscopy (FIG. 11B).

Kd [1]: > 30000 nM | Kd [2]: 300 nM
Structure (SMILES): CC(C)C[C@@H](C(N)=O)N1CCN(C(=O)[C@H](Cc2c[nH]c3ccccc23)N2CCN[C@@H](Cc3cccc(Cl)c3)C2=O)[C@@H](Cc2ccccc2)C1=O
